Laboratory results from patent US6498163B1, “Pyrido[2,3-D]pyrimidines and 4-aminopyrimidines as inhibitors of cellular proliferation” (Warner-Lambert Company, priority 1997, dated 2002).

Assays:
[1] = target: cdk2/cyclinE (Homo sapiens, UniProt P24941); experiment: Cyclin-dependent kinase assay cdk2/cyclinE; assay type: biochemical; conditions: Table 1; read-out: cdk2/E IC50
[2] = target: cdk2/cyclinA (Homo sapiens, UniProt P24941); experiment: Cyclin-dependent kinase assay cdk2/cyclinA; assay type: biochemical; conditions: Table 1

Row | SMILES | IC50 [1] [nM] | IC50 [2] [nM]
1 | CN(C)c1ccc(Nc2ncc3ccc(=O)n(C4CCCCC4)c3n2)cc1 [Example 147, 8-Cyclohexyl-2-(4-dimethylamino-phenylamino)-8H-pyrido[2,3-d]pyrimidin-7-one] | 81 | 12
2 | O=c1ccc2cnc(Nc3ccccc3)nc2n1CCCOCc1ccccc1 [Example 38, 8-(3-Benzyloxypropyl)-2-phenylamino-8H-pyrido[2,3-d]pyrimidin-7-one] | 1750 | 13500
